Experiment: ESI positive response factor (isotope-corrected peak area per molar concentration) in SFC/ESI/HRMS (area units per M); higher = higher ionization efficiency
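Note: standards in acetonitrile/water run in triplicate on a zwitterionic HILIC column, CO2–methanol gradient containing 20 mmol/L ammonium acetate, postcolumn makeup flow, Orbitrap full-scan detection.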

OCCOCCOCCOCCO [Tetraethylene glycol]
Conditions	ESI positive response factor
0.0122 µM	1.13e+18
0.0244 µM	5.16e+17
0.061 µM	3.3e+17
0.122 µM	2.2e+17
0.244 µM	2.18e+17
0.61 µM	1.82e+17
